Legend:
Androgen receptor [1] = target: T1, Androgen receptor (Homo sapiens, UniProt P10275); test: biochemical
Androgen receptor [2] = target: T1, Androgen receptor

The chains behind the UniProt entries cited, without tags or fusion partners. Where a name states a change or a piece, a line headed by the entry shows the natural chain unless it says otherwise.
UniProt P10275: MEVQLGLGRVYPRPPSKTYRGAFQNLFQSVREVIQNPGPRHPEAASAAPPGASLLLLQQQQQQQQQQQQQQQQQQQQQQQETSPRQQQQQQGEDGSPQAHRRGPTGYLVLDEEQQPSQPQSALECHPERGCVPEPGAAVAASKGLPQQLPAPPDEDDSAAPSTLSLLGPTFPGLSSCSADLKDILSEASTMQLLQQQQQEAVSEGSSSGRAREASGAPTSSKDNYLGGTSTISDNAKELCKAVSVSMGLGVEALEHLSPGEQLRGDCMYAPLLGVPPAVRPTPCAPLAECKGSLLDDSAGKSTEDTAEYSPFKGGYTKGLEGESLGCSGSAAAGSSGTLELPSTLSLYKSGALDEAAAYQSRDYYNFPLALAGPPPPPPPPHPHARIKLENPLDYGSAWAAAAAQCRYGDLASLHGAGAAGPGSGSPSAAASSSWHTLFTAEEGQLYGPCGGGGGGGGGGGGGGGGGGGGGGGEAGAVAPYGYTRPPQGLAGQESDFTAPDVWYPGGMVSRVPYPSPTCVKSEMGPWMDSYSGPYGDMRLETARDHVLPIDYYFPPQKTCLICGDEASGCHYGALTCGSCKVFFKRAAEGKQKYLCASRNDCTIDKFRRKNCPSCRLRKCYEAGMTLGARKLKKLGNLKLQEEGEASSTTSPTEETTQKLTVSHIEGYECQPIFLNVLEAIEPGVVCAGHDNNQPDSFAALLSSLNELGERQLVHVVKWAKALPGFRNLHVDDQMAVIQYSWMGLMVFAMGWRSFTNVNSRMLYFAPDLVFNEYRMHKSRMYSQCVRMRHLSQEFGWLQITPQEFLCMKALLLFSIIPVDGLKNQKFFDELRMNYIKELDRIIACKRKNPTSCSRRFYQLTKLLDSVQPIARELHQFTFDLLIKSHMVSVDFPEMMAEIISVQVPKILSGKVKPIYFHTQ

| Structure (SMILES) | Ki (Androgen receptor [1]) [nM] | EC50 (Androgen receptor [2]) [nM] |
| --- | --- | --- |
| Nc1ccc2c(C(F)(F)F)cc(=O)[nH]c2c1 | 407 | 1300 |
| CCC(C)c1cc2c(C(F)(F)F)cc(=O)[nH]c2cc1N (stereo unspecified) | 13 | – |
| CCC(C)(C)Nc1ccc2c(C(F)(F)F)cc(=O)[nH]c2c1 | 110 | – |
| O=c1cc(C(F)(F)F)c2cc(NCC(F)(F)C(F)(F)F)ccc2[nH]1 | 78 | 246 |
| Cc1cc2c(C(F)(F)F)cc(=O)[nH]c2cc1N | 30 | – |
| CNc1ccc2c(C(F)(F)F)cc(=O)[nH]c2c1 | 83 | – |
| CCc1cc2c(C(F)(F)F)cc(=O)[nH]c2cc1N | 20 | 593 |
| CCCc1cc2c(C(F)(F)F)cc(=O)[nH]c2cc1N | 9 | 83 |
| O=c1cc(C(F)(F)F)c2ccc(NCC(F)(F)F)cc2[nH]1 | 15 | 905 |
| CCCNc1cc2[nH]c(=O)cc(C(F)(F)F)c2cc1C | 641 | – |
| CCc1cc2c(C(F)(F)F)cc(=O)[nH]c2cc1NC | 869 | – |
| CCN(CC)c1ccc2c(C(F)(F)F)cc(=O)[nH]c2c1 | 463 | – |
| CC(C)(C)CNc1ccc2[nH]c(=O)cc(C(F)(F)F)c2c1 | 56 | – |
| Cc1cc2c(C(F)(F)F)cc(=O)[nH]c2cc1NCC(C)C | 650 | – |
| CN(C)c1ccc2c(C(F)(F)F)cc(=O)[nH]c2c1 | 761 | – |
| CCNc1ccc2c(C(F)(F)F)cc(=O)[nH]c2c1 | 29 | – |
| CC(C)(C)CNc1ccc2c(C(F)(F)F)cc(=O)[nH]c2c1 | 134 | – |
| O=c1cc(C(F)(F)F)c2cc(NCC(F)(F)F)ccc2[nH]1 | 16 | 108 |
| CCCN(CC(F)(F)F)c1ccc2c(C(F)(F)F)cc(=O)[nH]c2c1 | 241 | – |
| CCCCNc1ccc2c(C(F)(F)F)cc(=O)[nH]c2c1 | 50 | – |
| CCc1cc2c(C(F)(F)F)cc(=O)[nH]c2cc1NCC(F)(F)F | 157 | – |
| CC(C)CNc1ccc2[nH]c(=O)cc(C(F)(F)F)c2c1 | 59 | 404 |
| CC(C)CNc1ccc2c(C(F)(F)F)cc(=O)[nH]c2c1 | 65 | – |
| CCN(CC(F)(F)F)c1ccc2c(C(F)(F)F)cc(=O)[nH]c2c1 | 30 | – |

— ChEMBL document CHEMBL1144605, “Discovery of an androgen receptor modulator pharmacophore based on 2-quinolinones” (Bioorg Med Chem Lett, 2007)
